Experiment: 50 % lethal dose from toxic deaths in the Ehrlich carcinoma experiment
Assay type: in vivo, male ICR mouse
Conditions: mice bearing Ehrlich carcinoma, in the abdomen once a day for 7 days; 43200 min
Protocol: About 10^6/0.2 ml of Ehrlich carcinoma cells were placed in an abdomen of each male ICR mouse of 5 weeks old. On the next day the administration of the test sample in the abdomen was started. The test sample was given once a day for 7 days. For an untreated group, a physiological saline solution was given in the same manner as above. […] The T/C percent (T/C x 100) was determined from the average survival periods (days) of the treated group and control group. Further, 50 % lethal dose (LD50) was determined from the number of the mice which died of toxicity of the test samples administered.

Substance: selenium oxychloride·isoquinoline complex [Compound 6]
- LD50: 8 - 16 mg/kg/day x7
